Where two headings read alike, the source gives them in different places.
Experiments:
[1] = test system: cortical, subcortical and descending corticofugal pathways; settings: cited from earlier work
cortical spinal tract = test system: cortical spinal tract
Source text: The animals were anesthetized using spontaneous inhalation of 4% isoflurane for induction, followed by a mixture of 1.5% isoflurane, 30% oxygen, and air delivered through a nose mask. The rat's head was stabilized on a Plexigas holder and positioned into a 6 cm inner diameter volume coil for MRI scanning on a 9.4 T horizontal Varian scanner (Varian Inc., Palo Alto, Calif.). While in the scanner, the physiological condition of the rat was monitored using ECG, respiratory and temperature probes that were connected to an MR-compatible small animal monitoring and gating system (Model 1025, SA Instruments, Inc., Stony Brook, N.Y.). The rat's temperature was kept at about 37° C. by circulating warm air with 40% humidity using a 5 cm diameter plastic tube fitted to the back door of the magnet bore.

In the case of manganese chloride, the axoplasmic transport rate ([1]; cortical and subcortical regions) is given as 2.1-2.6 mm/h, the axoplasmic transport rate ([1]; descending corticofugal pathways (between the internal capsule and the pyramidal decussation)) is given as 4.6-6.1 mm/h and the “overall transport rate of manganese in cortical spinal tract” value (cortical spinal tract; 5 cm/12 hr, injection site to thoracic spinal cord, with electrical stimulation) is given as roughly 4 mm/h. The “time of signal enhancement in the cortical spinal tract of the thoracic spinal cord” value (cortical spinal tract; after manganese injection and electrical stimulation) was “about 12 hours”.
